{"source": "paper PMC12028738", "about": "(Marine Drugs, 2025)", "origin": "cited, not measured here", "molecular_target": "immobilized PD-L1 proteins", "conditions": "PD-1 with immobilized PD-L1, read-out: equilibrium dissociation constant (KD), cited from earlier work", "excerpt": "In recent years, anti-PD-1 and anti-PD-L1 antibodies have achieved great clinical success in cancer immunotherapy. In addition, peptide and small molecule inhibitors of PD-1/PD-L1 also attract much attention. Antitumor peptides have some advantages in comparison with antibodies, e.g., low production costs, easy to transport and store, and good stability. Programmed death ligand 1 (PD-L1) is a transmembrane protein consisting of 290 amino acids, also known as B7 homolog 1 (B7-H1) or cluster of differentiation (CD274). PD-L1 together with PD-L2 (CD273) serve as ligands of pr ...", "note": "Read-outs that look alike come from different tables or passages of the source.", "data": [{"substance": "programmed death 1 [PD-1]", "values": [{"measurement": "Kd", "setting": "ref 36", "value": 1560, "unit": "nM"}, {"measurement": "Kd", "setting": "ref 37", "value": 1150, "unit": "nM"}, {"measurement": "Kd", "setting": "ref 38", "value": 8200, "unit": "nM"}]}]}
